In ChEMBL document CHEMBL3351266, “Recent advances in the discovery of small molecule inhibitors of interleukin-1 receptor-associated kinase 4 (IRAK4) as a therapeutic target for inflammation and oncology disorders” (J Med Chem, 2015):

System: PBMC
Test: Inhibition of lipoteichoic acid-induced IL6 production in human PBMC incubated for 30 mins by ELISA method
Format: functional, cell-based
Conditions: 0.5 h

| SMILES | EC50 [nM] |
| --- | --- |
| Cc1cc(C#N)cnc1Nc1cc(NC(C)C)c(C(=O)NC[C@@H](F)C(C)(C)O)cn1 | 62 |
| CC(C)Nc1cc(Nc2ncc(Cl)cc2F)ncc1C(=O)NC[C@@H](F)C(C)(C)O | 45 |
